Measurements as given in ChEMBL document CHEMBL3880431, “Heme oxygenase inhibitors, screening methods for heme oxygenase inhibitors and methods of use of heme oxygenase inhibitors for antimicrobial therapy” (2013).

Assay: Lipophilicity, log P of the compound
Type: physicochemical
Details: octanol/water

NCc1ccc([N+](=O)[O-])cc1[N+](=O)[O-]
logP: 1.07
